Values of other authors, collected in patent US8673265B2, “Carbonylporphyrins and uses thereof” (Brookhaven Science Associates, LLC, priority 2006, dated 2014).

Test system: EMT-6 mammary carcinomas
Conditions: comparison value, same tumor model; cited from earlier work

Substance: copper tetra-phenyl-carboranyl porphyrin [CuTCPH]
- percentage of injected dose in tumor per gram of wet tissue: 6.1 %/g
